According to publication PMC4057808, “Molecular characterization of Clonorchis sinensis secretory myoglobin: Delineating its role in anti-oxidative survival” (Parasites & Vectors, 2014):

Tested on: CCn1c(=NN=c2sc3cc(S(=O)(=O)O)ccc3n2CC)sc2cc(S(=O)(=O)O)ccc21
Assay: purified protein
Conditions: H2O2 (0.2 mM in methods, ~20 μM in table note), 50 mM sodium phosphate pH 7.0, 20 °C, ABTS varied 20-300 mM as printed

## rCsMb (CsMb, Clonorchis sinensis myoglobin) (Clonorchis sinensis)
  Km: 66 mM
